What was measured:
δ opioid receptor = δ opioid receptor (Homo sapiens (Human), UniProt P41143); test: δ-opioid receptor functional assay ([35S]GTPγS); conditions: [35S]GTPγS functional assay
μ-opioid receptor = μ-opioid receptor (Homo sapiens (Human), UniProt P35372); test: μ-opioid receptor functional assay ([35S]GTPγS); conditions: [35S]GTPγS functional assay
[1] = molecular target: human opioid receptor-like (ORL-1) (Homo sapiens (Human), UniProt P41146); test: ORL-1 receptor binding assay ([3H]-nociceptin)
κ opioid receptor = κ opioid receptor (Homo sapiens (Human), UniProt P41145); test: κ-opioid receptor functional assay ([35S]GTPγS); conditions: [35S]GTPγS functional assay

Row | Compound | GTPγS Opioid Receptor δ Emax (δ opioid receptor) | GTPγS Opioid Receptor μ Emax (μ-opioid receptor) | Binding Affinity, ORL-1 [1] | GTPγS Opioid Receptor κ Emax (κ opioid receptor) | GTPγS Opioid Receptor κ EC50 (κ opioid receptor) | GTPγS Opioid Receptor μ EC50 (μ-opioid receptor)
1 | COc1ccc2c3c1O[C@H]1[C@@]4(OC)CC[C@@]5(C[C@@H]4COCc4ccc(C(O)CO)cc4)[C@@H](C2)N(CC2CC2)CC[C@]315 (some centres unmarked) | 73.33% | 25.00% | Inactive | 72.33% | – | –
2 | COc1ccc2c3c1O[C@H]1[C@@]4(OC)CC[C@@]5(C[C@@H]4COCc4cccc(NS(C)(=O)=O)c4)[C@@H](C2)N(CC2CC2)CC[C@]315 | – | – | – | – | Inactive | –
3 | COc1ccc2c3c1O[C@H]1[C@@]4(OC)CC[C@@]5(C[C@@H]4COCc4c(C)noc4C)[C@@H](C2)N(CC2CC2)CC[C@]315 | 83.33% | 31.75% | – | 92.67% | – | –
4 | CO[C@]12CC[C@@]3(C[C@@H]1COCc1cccc(OCC(=O)O)c1)[C@H]1Cc4ccc(O)c5c4[C@@]3(CCN1CC1CC1)[C@H]2O5 | – | – | – | 35.00% | – | –
5 | COc1ccc2c3c1O[C@H]1[C@@]4(OC)CC[C@@]5(C[C@@H]4COCc4ccccc4)[C@@H](C2)N(CCC(=O)O)CC[C@]315 | – | 62.00% | Inactive | 94.33% | – | –
6 | CNC(=O)Nc1cccc(COC[C@H]2C[C@@]34CC[C@]2(OC)[C@@H]2Oc5c(O)ccc6c5[C@@]23CCN(CC2CC2)[C@@H]4C6)c1 | – | – | – | 42.00% | – | –
7 | COc1ccc2c3c1O[C@H]1[C@@]4(OC)CC[C@@]5(C[C@@H]4COCC(N)=O)[C@@H](C2)N(CC2CC2)CC[C@]315 | – | 24.50% | – | 59.00% | – | –
8 | CO[C@]12CC[C@@]3(C[C@@H]1COCc1ccccc1)[C@H]1Cc4ccc(C#N)c5c4[C@@]3(CCN1CC1CC1)[C@H]2O5 | – | 44.60% | – | 85.00% | – | –
9 | COc1ccc2c3c1O[C@H]1[C@@]4(OC)CC[C@@]5(C[C@@H]4CSc4nc(C)ns4)[C@@H](C2)N(CC2CC2)CC[C@]315 | 57.67% | – | Inactive | 66.33% | – | Inactive
10 | CO[C@]12CC[C@@]3(C[C@@H]1COCc1cccc(NC(C)=O)c1)[C@H]1Cc4ccc(O)c5c4[C@@]3(CCN1CC1CC1)[C@H]2O5 | – | – | – | 23.00% | – | –
11 | CO[C@]12CC[C@@]3(C[C@@H]1COCc1ccccc1)[C@H]1Cc4ccc(CC(O)CO)c5c4[C@@]3(CCN1CC1CC1)[C@H]2O5 (some centres unmarked) | – | 38.33% | – | 80.33% | – | –
12 | COc1ccc2c3c1O[C@H]1[C@@]4(OC)CC[C@@]5(C[C@@H]4CNCC(N)=O)[C@@H](C2)N(CC2CC2)CC[C@]315 | – | 31.25% | – | 29.25% | – | –
13 | COC(=O)COc1cccc(COC[C@H]2C[C@@]34CC[C@]2(OC)[C@@H]2Oc5c(O)ccc6c5[C@@]23CCN(CC2CC2)[C@@H]4C6)c1 | – | – | – | 40.33% | – | –
14 | COc1ccc2c3c1O[C@H]1[C@@]4(OC)CC[C@@]5(C[C@@H]4COC(=O)[C@@H](N)CO)[C@@H](C2)N(CC2CC2)CC[C@]315 | – | – | – | 48.00% | – | Inactive
15 | COc1ccc2c3c1O[C@H]1[C@@]4(OC)CC[C@@]5(C[C@@H]4COCc4ccccc4)[C@@H](C2)N(CCC(N)=O)CC[C@]315 | – | 78.67% | Inactive | 103.67% | – | –
16 | COc1ccc2c3c1O[C@H]1[C@@]4(OC)CC[C@@]5(C[C@@H]4COCc4ccc(C(=O)NCC(=O)O)cc4)[C@@H](C2)N(CC2CC2)CC[C@]315 | – | 7.67% | – | 1.00% | Inactive | –
17 | COc1ccc2c3c1O[C@H]1[C@@]4(OC)CC[C@@]5(C[C@@H]4COCc4ccc(CC(=O)O)cc4)[C@@H](C2)N(CC2CC2)CC[C@]315 | – | 17.33% | – | 16.67% | – | –
18 | COc1ccc2c3c1O[C@H]1[C@@]4(OC)CC[C@@]5(C[C@@H]4COCc4ccccc4)[C@@H](C2)N(Cc2nn[nH]n2)CC[C@]315 | – | 101.33% | – | 65.00% | – | –
19 | COc1ccc2c3c1O[C@H]1[C@@]4(OC)CC[C@@]5(C[C@@H]4COCc4cccc(C(=N)N)c4)[C@@H](C2)N(CC2CC2)CC[C@]315 | – | – | – | 39.40% | – | Inactive
20 | COc1ccc2c3c1O[C@H]1[C@@]4(OC)CC[C@@]5(C[C@@H]4COC(=O)[C@@H](N)CCC(N)=O)[C@@H](C2)N(CC2CC2)CC[C@]315 | – | – | – | 43.83% | – | Inactive
21 | COCCOCCOCCOc1ccc(COC[C@H]2C[C@@]34CC[C@]2(OC)[C@@H]2Oc5c(OC)ccc6c5[C@@]23CCN(CC2CC2)[C@@H]4C6)cc1 | – | – | Inactive | 22.33% | – | Inactive
22 | COc1ccc2c3c1O[C@H]1[C@@]4(OC)CC[C@@]5(C[C@@H]4COCC(O)CO)[C@@H](C2)N(CC2CC2)CC[C@]315 (some centres unmarked) | – | – | – | 87.67% | – | Inactive

Row | Compound | GTPγS Opioid Receptor δ Emax (δ opioid receptor) | GTPγS Opioid Receptor μ Emax (μ-opioid receptor) | Binding Affinity, ORL-1 [1] | GTPγS Opioid Receptor κ Emax (κ opioid receptor) | GTPγS Opioid Receptor κ EC50 (κ opioid receptor) | GTPγS Opioid Receptor μ EC50 (μ-opioid receptor)
23 | COc1ccc2c3c1O[C@H]1[C@@]4(OC)CC[C@@]5(C[C@@H]4COC(=O)[C@H](C)N)[C@@H](C2)N(CC2CC2)CC[C@]315 | – | – | Inactive | 45.00% | – | Inactive
24 | COc1ccc2c3c1O[C@H]1[C@@]4(OC)CC[C@@]5(C[C@@H]4COCc4ccccc4)[C@@H](C2)N(CC(N)=O)CC[C@]315 | – | 56.67% | Inactive | 78.67% | – | –
25 | CO[C@]12CC[C@@]3(C[C@@H]1COCc1ccccc1)[C@H]1Cc4ccc(C#N)c5c4[C@@]3(CCN1C)[C@H]2O5 | – | 101.00% | Inactive | 95.00% | – | –
26 | COCCOCCOCCOCCOCCOC[C@H]1C[C@@]23CC[C@]1(OC)[C@@H]1Oc4c(OC)ccc5c4[C@@]12CCN(CC1CC1)[C@@H]3C5 | – | – | Inactive | 18.75% | – | Inactive
27 | CO[C@]12CC[C@@]3(C[C@@H]1COCc1ccccc1)[C@H]1Cc4ccc(C(=O)O)c5c4[C@@]3(CCN1CC1CC1)[C@H]2O5 | – | – | – | 84.67% | – | –
28 | COc1ccc2c3c1O[C@H]1[C@@]4(OC)CC[C@@]5(C[C@@H]4COCc4ccc(NC(C)=O)cc4)[C@@H](C2)N(CC2CC2)CC[C@]315 | – | – | – | 28.00% | – | Inactive
29 | COCCOCCOCCOC[C@H]1C[C@@]23CC[C@]1(OC)[C@@H]1Oc4c(OC)ccc5c4[C@@]12CCN(CC1CC1)[C@@H]3C5 | – | – | Inactive | 26.00% | – | Inactive
30 | COc1ccc2c3c1O[C@H]1[C@@]4(OC)CC[C@@]5(C[C@@H]4CNC(=O)[C@H](C)N)[C@@H](C2)N(CC2CC2)CC[C@]315 | – | – | – | – | – | Inactive
31 | COc1ccc2c3c1O[C@H]1[C@@]4(OC)CC[C@@]5([C@@H](CCC(=O)O)[C@@H]4COCc4ccccc4)[C@@H](C2)N(CC2CC2)CC[C@]315 | – | – | – | 41.00% | – | –
32 | CO[C@]12CC[C@@]3(C[C@@H]1COCc1ccc(C(N)=O)cc1)[C@H]1Cc4ccc(O)c5c4[C@@]3(CCN1CC1CC1)[C@H]2O5 | – | – | – | 17.33% | – | –
33 | COc1ccc2c3c1O[C@H]1[C@@]4(OC)CC[C@@]5([C@@H](CC#N)[C@@H]4COCc4ccccc4)[C@@H](C2)N(CC2CC2)CC[C@]315 | – | 22.75% | – | 38.00% | – | –
34 | COc1ccc2c3c1O[C@H]1[C@@]4(OC)CC[C@@]5(C[C@@H]4CSc4nc(C)ns4)[C@@H](C2)N(C)CC[C@]315 | – | – | Inactive | – | Inactive | –
35 | COc1ccc2c3c1O[C@H]1[C@@]4(OC)CC[C@@]5(C[C@@H]4CSc4nncs4)[C@@H](C2)N(CC2CC2)CC[C@]315 | – | – | Inactive | 46.67% | – | Inactive
36 | COc1ccc2c3c1O[C@H]1[C@@]4(OC)CC[C@@]5(C[C@@H]4COCc4cccc(NCC(=O)O)c4)[C@@H](C2)N(CC2CC2)CC[C@]315 | 82.00% | – | – | 79.67% | – | Inactive
37 | COc1ccc2c3c1O[C@H]1[C@@]4(OC)CC[C@@]5(C[C@@H]4COCc4cccc(CC(=O)O)c4)[C@@H](C2)N(CC2CC2)CC[C@]315 | – | – | – | 36.67% | – | Inactive
38 | CO[C@]12CC[C@@]3(C[C@@H]1COCc1ccccc1)[C@H]1Cc4ccc(OCC(=O)O)c5c4[C@@]3(CCN1CC1CC1)[C@H]2O5 | – | 61.33% | Inactive | 92.25% | – | –
39 | CO[C@]12CC[C@@]3(C[C@@H]1COCc1ccccc1)[C@H]1Cc4ccc(C(=O)O)c5c4[C@@]3(CCN1C)[C@H]2O5 | – | 90.00% | Inactive | 107.67% | – | –
40 | CO[C@]12CC[C@@]3(C[C@@H]1COCc1ccccc1)[C@H]1Cc4ccc(-c5nn[nH]n5)c5c4[C@@]3(CCN1CC1CC1)[C@H]2O5 | – | 27.33% | – | 68.00% | – | –
41 | COc1ccc2c3c1O[C@H]1[C@@]4(OC)CC[C@@]5(C[C@@H]4COCc4ccc(N(S(C)(=O)=O)S(C)(=O)=O)cc4)[C@@H](C2)N(CC2CC2)CC[C@]315 | – | – | – | 23.33% | – | –
42 | CO[C@]12CC[C@@]3(C[C@@H]1COCc1ccccc1)[C@H]1Cc4ccc(C(O)CO)c5c4[C@@]3(CCN1CC1CC1)[C@H]2O5 (some centres unmarked) | – | 74.67% | – | 89.00% | – | –
43 | COCCOCCOCCOCCOCCOc1ccc(COC[C@H]2C[C@@]34CC[C@]2(OC)[C@@H]2Oc5c(OC)ccc6c5[C@@]23CCN(CC2CC2)[C@@H]4C6)cc1 | – | – | Inactive | – | Inactive | Inactive

Reference: US9221831B2, “Buprenorphine analogs” (dated 2015)
